The values that follow come from PubChem BioAssay AID540253 (National Center for Advancing Translational Sciences (NCATS), 2011).

The list shows a part of the results, in another mix than the full data. Inconclusive results are not listed. The source made the active and inactive calls. The call rests on the fitted dose curve.

The assay has as its target Snurportin-1 (Homo sapiens) + GTP-binding nuclear protein Ran (Homo sapiens) + Importin subunit beta-1 (Homo sapiens) (UniProt O95149+P62826+Q14974). Description: qHTS Assay for Inhibitors of RanGTP induced Rango (Ran-regulated importin-beta cargo) - Importin beta complex dissociation. Further: % of control where 0% means no effect; nearly all actives have a fitted effect of over 45% in size. Particulars: Biochemical FRET Rango-importin beta; at 46.1 µM (top of the series). On the technique in general: qHTS replaces the single test concentration by a dilution series.
Take `c1ccc(-c2nn[nH]n2)c(-c2nn[nH]n2)c1`: the activity change, negative = inhibition was inactive: -5.43%.
The figure for `Cc1ccc(NP(=O)(Oc2cccc(C)c2)Oc2cccc(C)c2)nc1` is inactive: 12.8%.
The figure for `O=P1(N(CCCl)CCCl)OCCC2CCCCN21` (stereo unspecified) is inactive: -1.09%; for `CCOC(=O)c1ccc(NP(C)(=O)Oc2ccc(F)cc2)cc1` (stereo unspecified) it is inactive: -8.27%.
The figure for `COc1ccc(OP(C)(=O)Nc2ccc(SC(F)(F)F)cc2)cc1` (stereo unspecified) is inactive: 6.4%.
For the compound `Cc1c([N+](=O)[O-])cc([N+](=O)[O-])c(Br)c1[N+](=O)[O-]`, the activity change, negative = inhibition was inactive: 12.9%.
The figure for `COC(=O)c1cc2c(s1)N=C(c1ccccc1)N(C)P2(=O)N1CCOCC1` (stereo unspecified) is inactive: -10.3%; for `CC(=O)NC(SC(=S)N(CC(C)C)CC(C)C)C(Cl)(Cl)Cl` (stereo unspecified) it is inactive: 7.05%.
The figure for `Cc1ccc(OP(=O)(Nc2ccccn2)Oc2ccc(C)cc2)cc1` is inactive: 8.77%; for `O=C(OC1CN2CCC1CC2)c1ccccc1` (stereo unspecified) it is inactive: -12.4%; for `CCN(CC)CCCOC(=O)C(O)(c1ccccc1)C1CCCCC1` (stereo unspecified) it is inactive: -2.99%.
For `CCC(=O)N1C2C3N(C(=O)CC)C1C1N(C(=O)CC)C(C(N1C(=O)CC)N3C(=O)CC)N2C(=O)CC`, the activity change, negative = inhibition was inactive: -3.51%.
With `CP(=O)(Nc1ccccc1)Oc1ccc(F)cc1` (stereo unspecified), the activity change, negative = inhibition was inactive: 25%.
In the case of `CC(NC(=O)COC(=O)C(O)(c1ccccc1)c1ccccc1)c1ccccc1` (stereo unspecified), the activity change, negative = inhibition was inactive: -11%.
With `Cc1ccccc1OP(=O)(Nc1ccccn1)Oc1ccccc1C`, the activity change, negative = inhibition was inactive: 0.175%.
The figure for `CCCCCOc1ccc(NP(C)(=O)Oc2ccc(Cl)cc2Cl)cc1` (stereo unspecified) is inactive: 0.46%.
The figure for `O=c1c2cc([N+](=O)[O-])ccc2[nH]c2c([N+](=O)[O-])cc([N+](=O)[O-])cc12` is inactive: 40%; for `CN(C)C(=O)Oc1noc2ccccc12` it is inactive: 18.4%.
In the case of `O=P1(Nc2nc3ccc(Cl)cc3s2)COc2ccccc2O1` (stereo unspecified), the activity change, negative = inhibition is inactive: -0.319%.
The figure for `CCOc1ccc(C2=NCC(CBr)S2)cc1` (stereo unspecified) is inactive: 2.55%; for `CCc1cc(O)c([N+](=O)[O-])c(C)c1[N+](=O)[O-]` it is inactive: 2.56%.
In the case of `CP(=O)(Nc1ccccc1F)Oc1ccccc1` (stereo unspecified), the activity change, negative = inhibition is inactive: 0.128%.
In the case of `CC(C)(C)C(=O)NC(Sc1ccccc1)C(Cl)(Cl)Cl` (stereo unspecified) it was inactive: -0.582%; in that of `CC(C)c1ccc(OP(C)(=O)Nc2ccc(SC(F)(F)F)cc2)cc1` (stereo unspecified), inactive: 4.28%.
The figure for `CC(=O)c1ccc(N2CC2c2ccncc2)cc1` (stereo unspecified) is inactive: -8.35%; for `COC(=O)C1(C)COP(=O)(NCc2ccccc2)OC1` (stereo unspecified) it is inactive: -1.25%; for `Cc1ccccc1CN(C)C(=O)COC(=O)C(O)(c1ccccc1)c1ccccc1` it is inactive: 17.4%.
The figure for `O=C(OCCN1CCN(CCOCc2ccccc2)CC1)C(O)(c1ccccc1)c1ccccc1` is inactive: 0.0737%.
Consider `C[C@H]1OP(=O)(Oc2ccccc2)C[C@@H]2O[C@@H]21` (stereo partly specified), for which the activity change, negative = inhibition is inactive: 0.893%.
As for `C[C@@H]1C=CCP(=O)(Oc2ccccc2)O1` (stereo partly specified), the activity change, negative = inhibition is inactive: 12.6%.
In the case of `CC(=O)Nc1ccc([As](=O)(O)O)c(O)c1` it was inactive: 1.35%; in that of `CC(=O)Nc1ccc(Oc2c([N+](=O)[O-])cc([N+](=O)[O-])cc2[N+](=O)[O-])cc1`, inactive: -2.14%; in that of `CP(=O)(Nc1ccc(SC(F)(F)F)cc1)Oc1ccc(F)cc1` (stereo unspecified), inactive: -7.55%.
The figure for `CC(C)C(=O)NC(Sc1ccccc1)C(Cl)(Cl)Cl` (stereo unspecified) is inactive: -23.9%.
The figure for `O=P(Nc1nccs1)(c1ccccc1)c1ccccc1` is inactive: 4.79%.
In the case of `CCOP(C)(=S)SCC(=O)NC(C)(CC)C(=O)O` (stereo unspecified), the activity change, negative = inhibition was inactive: -4.06%.
In the case of `c1nnnn1CCn1cnnn1` it was inactive: -1.05%; in that of `CP(=O)(Nc1ccc2c(c1)OCCO2)Oc1ccccc1` (stereo unspecified), inactive: -15%.
On to `Cc1ccccc1NP(C)(=O)Nc1ccccc1C`, for which the activity change, negative = inhibition is inactive: 7.66%.
The figure for `COc1ccc(OP(C)(=O)Nc2cccc(Br)c2)cc1` (stereo unspecified) is inactive: -5.7%.
The figure for `COc1ccc(N)c([N+](=O)[O-])c1[N+](=O)[O-]` is inactive: 23.1%.
In the case of `O=P(Nc1ccccn1)(c1ccc(Br)cc1)c1ccc(Br)cc1` it was inactive: 7.21%; in that of `CN(C)C1(CNC(=O)c2ccc(Cl)c(S(N)(=O)=O)c2)CCCCC1`, inactive: 0.0616%.
On to `CN(C)CCOC(=O)C(O)(c1ccccc1)C1CCCCC1` (stereo unspecified), for which the activity change, negative = inhibition was inactive: -1.84%.
With `O=P(Nc1nc2ccccc2s1)(c1ccccc1)c1ccccc1`, the activity change, negative = inhibition is inactive: 2.22%.
On to `C[C@H]1OP(=O)(Oc2ccccc2)[C@H](O)[C@H](O)[C@H]1N=[N+]=[N-]` (stereo partly specified), for which the activity change, negative = inhibition is inactive: -2.24%.
For `COc1ccc(NP(C)(=O)Oc2ccccc2OC)cc1` (stereo unspecified), the activity change, negative = inhibition is inactive: -15.8%.
On to `O=[N+]([O-])c1ccc(O)c(/C=N/Nc2ccc([N+](=O)[O-])cc2[N+](=O)[O-])c1`, for which the activity change, negative = inhibition is inactive: -12.3%.
For the compound `O=[N+]([O-])c1ccc(OP2(=O)COCCO2)cc1` (stereo unspecified), the activity change, negative = inhibition is inactive: 12.7%.
As to `CC(=O)NC(SC(=S)N(C)C)C(Cl)(Cl)Cl` (stereo unspecified), the activity change, negative = inhibition is inactive: 0.79%.
In the case of `O=[N+]([O-])c1ncn(CCn2cnc([N+](=O)[O-])n2)n1` it was inactive: -0.92%; in that of `O=[As](O)(c1ccccc1)c1ccc(O)cc1`, inactive: 2.09%; in that of `Cc1cc(-c2cccc3ccccc23)c(C)cn1.O=[N+]([O-])c1cc([N+](=O)[O-])c(O)c([N+](=O)[O-])c1`, inactive: -5.09%.
As for `Cc1c(C(c2ccc3c(c2)OCO3)c2c(C)n(C)n(-c3ccccc3)c2=O)c(=O)n(-c2ccccc2)n1C.O=[N+]([O-])c1cc([N+](=O)[O-])c(O)c([N+](=O)[O-])c1`, the activity change, negative = inhibition was inactive: 8.1%.
Take `C(Cc1nn[nH]n1)Cc1nn[nH]n1`: the activity change, negative = inhibition was inactive: -11.4%.
In the case of `Nc1ccc([As](=O)(O)c2ccc([N+](=O)[O-])cc2)cc1` it was inactive: 1.43%.
Consider `O=C(OC1CN2CCC1CC2)c1cccc(Cl)c1` (stereo unspecified), for which the activity change, negative = inhibition is inactive: 1.08%.
In the case of `Nc1ccc2c(ccc3cccnc32)n1.O=[N+]([O-])c1cc([N+](=O)[O-])c(O)c([N+](=O)[O-])c1` it was inactive: 6.17%.
The figure for `O=P1(N(CCCl)CCCl)OCCCS1` (stereo unspecified) is inactive: -8.64%.
In the case of `CCOC(=O)c1ccc(NP(C)(=O)Oc2ccc(Cl)cc2)cc1` (stereo unspecified), the activity change, negative = inhibition is inactive: -11.5%.
In the case of `O=C(Nc1cc([As](=O)(O)O)ccc1O)c1ccccc1` it was inactive: 0.154%.
